Assay results from patent US20100292337A1, “Polar Hydrophilic Prodrugs of Amphetamine and Other Stimulants and Processes for Making and Using the Same” (priority 2007, published 2010).

Assay: Example 13: oral pharmacokinetic study of Lys-Amp and Cit-Amp
Details: rat, released d-amphetamine

Q: With “l-citrulline-d-amphetamine hydrochloride [Cit-Amp]” as the substance, how does the Tmax read?
A: 15 min
